ChEMBL document CHEMBL4406894, “Design, synthesis and biological evaluation of novel desloratadine derivatives with anti-inflammatory and H1 antagonize activities” (Bioorg Med Chem Lett, 2019)

Sequences of proteins named here, by UniProt entry; tags and fusion partners are left off.
UniProt P35367, whole entry: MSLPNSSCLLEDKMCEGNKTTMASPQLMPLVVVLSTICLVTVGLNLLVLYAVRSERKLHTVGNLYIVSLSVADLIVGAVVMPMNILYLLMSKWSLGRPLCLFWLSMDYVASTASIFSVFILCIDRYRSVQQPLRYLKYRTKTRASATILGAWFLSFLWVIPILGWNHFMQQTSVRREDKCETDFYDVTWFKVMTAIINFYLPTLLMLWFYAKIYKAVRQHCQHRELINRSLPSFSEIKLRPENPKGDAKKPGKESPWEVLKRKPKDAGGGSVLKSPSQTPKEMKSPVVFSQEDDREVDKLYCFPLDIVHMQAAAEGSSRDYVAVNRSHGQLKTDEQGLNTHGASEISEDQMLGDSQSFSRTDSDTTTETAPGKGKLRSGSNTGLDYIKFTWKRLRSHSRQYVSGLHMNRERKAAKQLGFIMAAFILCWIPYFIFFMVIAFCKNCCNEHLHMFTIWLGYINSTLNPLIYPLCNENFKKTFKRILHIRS

Experiments:
Histamine H1 receptor = Histamine H1 receptor (Homo sapiens, UniProt P35367)
[1] = Intrinsic clearance in monkey liver microsomes incubated for 6 hrs by LC/MS analysis; assay type: ADME, Macaca mulatta, Microsome; settings: rhesus monkey, read-out: CLH
[2] = Half life in monkey liver microsomes incubated for 6 hrs by LC/MS analysis; assay type: ADME, Macaca mulatta, Microsome; settings: rhesus monkey

Row | SMILES | IC50 (Histamine H1 receptor) | microsomal CLint [1] | half-life [2]
1 | O=[N+]([O-])c1ccccc1OCC(O)CN1CCC(=C2c3ccc(Cl)cc3CCc3cccnc32)CC1 (centres undefined) | 52.9 nM |  | 
2 | OC(COc1ccccc1Br)CN1CCC(=C2c3ccc(Cl)cc3CCc3cccnc32)CC1 (centres undefined) | 40.2 nM |  | 
3 | CCOc1ccccc1OCC(O)CN1CCC(=C2c3ccc(Cl)cc3CCc3cccnc32)CC1 (centres undefined) | 17.6 nM |  | 
4 | CC(=O)c1ccccc1OCC(O)CN1CCC(=C2c3ccc(Cl)cc3CCc3cccnc32)CC1 (centres undefined) | 21 nM |  | 
5 | COc1c(OCC(O)CN2CCC(=C3c4ccc(Cl)cc4CCc4cccnc43)CC2)ccc(F)c1F (centres undefined) | 27.9 nM |  | 
6 | OC(COc1ccccc1Cl)CN1CCC(=C2c3ccc(Cl)cc3CCc3cccnc32)CC1 (centres undefined) | 28.4 nM |  | 
7 | OC(COc1ccccc1OC(F)(F)F)CN1CCC(=C2c3ccc(Cl)cc3CCc3cccnc32)CC1 (centres undefined) | 36.7 nM |  | 
8 | OC(COc1ccccc1C(F)(F)F)CN1CCC(=C2c3ccc(Cl)cc3CCc3cccnc32)CC1 (centres undefined) | 81.8 nM |  | 
9 | COc1ccccc1OCC(O)CN1CCC(=C2c3ccc(Cl)cc3CCc3cccnc32)CC1 (racemic) | 2.95 nM | 844 µL/min/mg | 1.65 min

The remaining compounds from weak to strong by IC50 (Histamine H1 receptor), led by results:

Row | IC50 (Histamine H1 receptor) | SMILES | microsomal CLint [1] | half-life [2]
10 | 12 nM | COc1ccc(OCC(O)CN2CCC(=C3c4ccc(Cl)cc4CCc4cccnc43)CC2)cc1 (centres undefined) |  | 
11 | 9.28 nM | COc1ccccc1OCCCN1CCC(=C2c3ccc(Cl)cc3CCc3cccnc32)CC1 |  | 
12 | 8.9 nM | Cc1ccccc1OCC(O)CN1CCC(=C2c3ccc(Cl)cc3CCc3cccnc32)CC1 (centres undefined) |  | 
13 | 8.14 nM | COc1cccc(OCC(O)CN2CCC(=C3c4ccc(Cl)cc4CCc4cccnc43)CC2)c1 (centres undefined) |  | 
14 | 6.23 nM | OC(COc1ccccc1)CN1CCC(=C2c3ccc(Cl)cc3CCc3cccnc32)CC1 (centres undefined) |  | 
15 | 4.74 nM | OC(COc1ccccc1F)CN1CCC(=C2c3ccc(Cl)cc3CCc3cccnc32)CC1 (centres undefined) |  | 
16 | 4.56 nM | COc1ccccc1OC[C@@H](O)CN1CCC(=C2c3ccc(Cl)cc3CCc3cccnc32)CC1 |  | 
17 | 3.67 nM | COc1ccccc1OC[C@H](O)CN1CCC(=C2c3ccc(Cl)cc3CCc3cccnc32)CC1 |  | 
